Assay results as given in article PMC8033753, “Proadrenomedullin N-Terminal 20 Peptides (PAMPs) Are Agonists of the Chemokine Scavenger Receptor ACKR3/CXCR7” (ACS Pharmacology & Translational Science, 2021).

Sequences of proteins named here, by UniProt entry; tags and fusion partners are left off. A change or cut given only in a name is not applied to a line headed by its entry.
UniProt P25106: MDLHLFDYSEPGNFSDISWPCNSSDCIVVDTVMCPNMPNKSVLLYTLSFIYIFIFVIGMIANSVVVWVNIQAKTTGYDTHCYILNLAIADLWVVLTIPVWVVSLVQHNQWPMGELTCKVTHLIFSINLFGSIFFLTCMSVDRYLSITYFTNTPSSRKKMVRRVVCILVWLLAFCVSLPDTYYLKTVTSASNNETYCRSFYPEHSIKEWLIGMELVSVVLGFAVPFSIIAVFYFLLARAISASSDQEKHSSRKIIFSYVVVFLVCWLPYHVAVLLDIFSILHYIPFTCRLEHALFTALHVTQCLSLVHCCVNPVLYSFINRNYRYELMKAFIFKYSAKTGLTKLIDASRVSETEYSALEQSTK

Target: T1, ACKR3 (Homo sapiens, UniProt P25106)
T1 construct: expressed in transfected cells; host or cells: HEK293T
Test: β-arrestin-2 recruitment to ACKR3, nanoluciferase complementation (NanoBiT) in HEK cells
Type: cell-based
Settings: concentration range up to 9 μM
Procedure: Ligand-induced recruitment of β-arrestin, miniGi or miniGq proteins (engineered GTPase domain of Gα subunit)[46],[47] to the receptors was monitored using NanoBiT technology (Promega), as previously described.[27],[48] HEK293T cells (5 × 10^6 cells) were seeded in 10 cm dishes, and 24 h later, the cells were cotransfected with pNBe plasmids encoding the receptor C-terminally fused to SmBiT and β-arrestin, miniGi, or miniGq N-terminally fused to LgBiT. After 24 h, the cells were detached and incubated for 25 min at 37 °C with Nano-Glo Live Cell substrate diluted 200-fold, distributed into white 96-well plates (1 × 10^5 cells/well), and treated with the indicated concentrations of peptides. Luminescence was recorded during 20 min with a Mithras LB940 luminometer (Berthold Technologies). For the concentration–response curves, the signal recorded with a saturating concentration of full agonist for each receptor was set as 100%. For receptor screening experiments, results were expressed as fold vehicle, and an agonist chemokine (100 nM) listed in the IUPHAR repository of chemokine receptor ligands was included as a positive control for each receptor.
Concentration–response curves were fitted to the four-parameter Hill equation using an iterative, least-squares method (GraphPad Prism version 8.0.1). […]

activity toward ACKR3 (β-arrestin-2 recruitment), in words: No activity
SMILES: CC(C)C[C@H](NC(=O)CNC(=O)[C@H](C)NC(=O)[C@H](CC(C)C)NC(=O)[C@H](CCCNC(=N)N)NC(=O)[C@H](Cc1c[nH]cn1)NC(=O)[C@@H](NC(=O)[C@@H](NC(=O)[C@@H]1CSSC[C@H](NC(=O)[C@H](C)N)C(=O)N[C@@H](CC(=O)O)C(=O)N[C@@H]([C@@H](C)O)C(=O)N[C@@H](C)C(=O)N[C@@H]([C@@H](C)O)C(=O)N1)C(C)C)[C@@H](C)O)C(=O)N[C@@H](CC(C)C)C(=O)N[C@@H](CO)C(=O)N[C@@H](CCCNC(=N)N)C(=O)N[C@@H](CO)C(=O)NCC(=O)NCC(=O)N[C@H](C(=O)N[C@H](C(=O)N[C@@H](CCCCN)C(=O)N[C@@H](CC(N)=O)C(=O)N[C@@H](CC(N)=O)C(=O)N[C@@H](Cc1ccccc1)C(=O)N[C@H](C(=O)N1CCC[C@H]1C(=O)N[C@H](C(=O)N[C@@H](CC(N)=O)C(=O)N[C@H](C(=O)NCC(=O)N[C@@H](CO)C(=O)N[C@@H](CCCCN)C(=O)N[C@@H](C)C(=O)N[C@@H](Cc1ccccc1)C(N)=O)C(C)C)[C@@H](C)O)C(C)C)C(C)C)C(C)C [α-CGRP, reference compound]
